Bioassay records: PubChem BioAssay, several laboratories
The list is not random: actives were taken first. Their share in the collection is about 4.2%.
MC4R barr agon: agonists of human melanocortin 4 receptor (MC4R) beta-arrestin; U2OS MC4R beta-arrestin complementation, luminescence; percent of melanotan II response, DMSO zero; activation, % at 8.9 µM; P32245; 0.98% of 360,000 active; AID 540308;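 active = activation above a per-plate cutoff, the mean activation of sample wells on that plate plus 3 SD, cut at about 8% in these data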
UUG fidelity: modulators of yeast start codon fidelity, primary screen, whole organism, S. cerevisiae, single point, plate reader; activity score, % at 18.7 µM; actives 0.13% (n = 350,000); S. cerevisiae UUG-firefly luciferase reporter, luminescence/redox ratio;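 active = replicate mean at a twofold rise or more, about +100% in these data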;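 also: firefly luciferase made from a UUG start codon reports start codon fidelity; reporter light over untreated wells divided by growth signal over untreated wells; some hits fall short of that in this replicate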
MC4R antagonist: blocks human MC4R cAMP signaling; P32245; MC4R-expressing cells, MTII-stimulated cAMP, LANCE TR-FRET; inhibition, % at 6.5 µM; 0.48% of 360,000 active;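 active = inhibition above its plate's cutoff, the mean of tested wells on that plate plus 3 SD, cut at about 29% in these data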;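 also: 0% = Melanotan II alone and 100% = Melanotan II plus saturating MCL0020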
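Assay system: U2OS-MC4R stable cell line; Also added: Melanotan II; Technique: Eu-cAMP/anti-cAMP TR-FRET, emission 671 nm; Times: 30-min compound, 1-h challenge, 1-h detection, room temperature.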
NALP1 inh: NALP1 inhibition; AID 2071; 0.61% of 280,000 active; S. cerevisiae NALP1/ASC/caspase-1 growth, X-gal OD620, 72 h; inhibition, % at 10 µM; in the data active = inhibition mostly above about 24%, no sharp cut-off; inactive = mostly below about 32%
ALR inh: human ALR oxidase inhibition via reduced H2O2; P55789; purified ALR, DTT oxidation, H2O2 HRP-luminol luminescence; inhibition, % (concentration not given with the values); actives 3.8% (n = 290,000); AID 485317;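 active = mean and each replicate at 75% or more; inconclusive = only one of the two met; inactive = neither met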;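 note: stock transfer was 7.5 nL into about 7.5 µL; 0% = neutral wells and 100% = wells with inactivated enzyme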
HDAC3 inhib: blocks human histone deacetylase 3; recombinant HDAC3, fluorogenic peptide/trypsin coupled, fluorescence; AID 2718; inhibition, % at 8.3 µM; O15379; 0.15% of 320,000 active; in the data active = inhibition above about 26%, passing the limit was not always enough; inconclusive = no clear call, values can overlap the other calls
U2OS cAMP counter: nonselective cAMP signaling inhibitor, MC4R antagonist counter-screen | inhibition, % at 6.5 µM | AID 602193 | shares compounds with MC4R antagonist | 26% of 1,600 active | parental U2OS, forskolin cAMP, LANCE TR-FRET;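 active = mean inhibition over triplicates above the low-control well mean plus 3 SD, set per campaign, cut at about 13% in these data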;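 also: signal is single emission at 671 nm which falls as cellular cAMP rises; 0% = forskolin-stimulated wells and 100% = buffer without forskolin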
MC4R antag conf: human MC4R cAMP antagonism confirmation. MC4R-expressing cells, MTII-stimulated cAMP, TR-FRET. AID 602195. inhibition, % at 6.5 µM. shares compounds with MC4R antagonist. 27% of 1,600 active; in the data active = inhibition above about 29%;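 also: 0% = agonist stimulated wells alone and 100% = agonist stimulated wells plus saturating reference antagonist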
The depositor's hits bear a star; ? = inconclusive; nt = no result given.

Codes: A = MC4R barr agon; B = UUG fidelity; C = MC4R antagonist; D = NALP1 inh; E = ALR inh; F = HDAC3 inhib; G = U2OS cAMP counter; H = MC4R antag conf
CCN(CC(=O)Nc1ccc(NC(C)=O)cc1)C(=O)CCN1C(=O)c2cccc([N+](=O)[O-])c2C1=O
  A: -2	B: -15	C: 5	D: 4	E: -17	F: -7	G: nt	H: nt

COc1cccc(NC(=O)CCN2C(=O)c3cccc([N+](=O)[O-])c3C2=O)c1
  A: -1	B: 8	C: 37*	D: -10	E: -66	F: -2	G: 15*	H: 34*

COc1ccc(C(=O)CCN2CCCCCC2)cc1
  A: -2	B: -9	C: 40*	D: -19	E: 54	F: -5	G: 15*	H: 24

C[C@H](CO)N1C[C@H](C)[C@H](CN(C)C(=O)Nc2cccc3ccccc23)Oc2ccc(NC(=O)Nc3ccccc3)cc2CC1=O
  A: nt	B: 11	C: nt	D: nt	E: nt	F: nt	G: nt	H: nt

Cc1cccc(NC(=O)NCC2CC2)c1
  A: -1	B: -15	C: 30*	D: 18	E: -2	F: 2	G: -4	H: -20

O=C(OC1CCOC1=O)c1cc(-c2ccccc2)nc2ccccc12 (stereo not drawn)
  A: -1	B: -16	C: 23	D: 4	E: -3	F: -4	G: nt	H: nt

O=C(OC1CCOC1=O)c1cc(-c2ccc(Cl)cc2)nc2ccccc12 (stereo not drawn)
  A: 0	B: -19	C: 35*	D: 8	E: -5	F: -3	G: 17*	H: 23

O=C(O)c1cc(-c2ccc(Cl)s2)nc2ccccc12
  A: 1	B: nt	C: 34*	D: 13	E: 93*	F: -7	G: 12	H: 28

Cc1ccc(-c2cc(C(=O)O)c3ccccc3n2)s1
  A: -2	B: -8	C: 2	D: 21	E: 23	F: -112	G: nt	H: nt

COC(=O)C(Cc1ccccc1)NC(=O)CCNC(=O)c1ccc(Br)cc1 (stereo not drawn)
  A: 1	B: -14	C: 29*	D: 11	E: -7	F: -1	G: -9	H: -20

Just UUG fidelity, for some of the entries so far:
SMILES,UUG fidelity
COc1cccc(NC(=O)CCN2C(=O)c3cccc([N+](=O)[O-])c3C2=O)c1,8
COC(=O)C(Cc1ccccc1)NC(=O)CCNC(=O)c1ccc(Br)cc1 (stereo not drawn),-14

Carrying on.
Codes: A = MC4R barr agon; B = UUG fidelity; C = MC4R antagonist; D = NALP1 inh; E = ALR inh; F = HDAC3 inhib; G = U2OS cAMP counter; H = MC4R antag conf
COC(=O)[C@H](Cc1ccccc1)NC(=O)NCCc1ccc(S(N)(=O)=O)cc1
  A: -2	B: -18	C: 1	D: -5	E: -1	F: 10	G: nt	H: nt

COC(=O)[C@H](Cc1ccccc1)NC(=O)NCCc1ccc(F)cc1
  A: -1	B: 9	C: 29*	D: 18	E: -14	F: 6	G: 32*	H: 35*

COC(=O)C(Cc1ccccc1)NC(=O)CCC(=O)NC(C)CCc1ccccc1 (stereo not drawn)
  A: 1	B: 13	C: 16	D: 4	E: -6	F: -6	G: nt	H: nt

O=C(CCN1CCCC1Cc1ccccc1)c1ccc2c(c1)OCCO2 (stereo not drawn)
  A: -3	B: nt	C: 36*	D: 24	E: 6	F: 2	G: 16*	H: 35*

O=C(CCN1CCCCC1)c1ccc2c(c1)OCCO2
  A: 1	B: 2	C: 8	D: 28	E: 2	F: 1	G: nt	H: nt

O=C(C[C@H]1C[C@H]2c3cc(NC(=O)Nc4ccc(C(F)(F)F)cc4)ccc3O[C@H]2[C@H](CO)O1)NCCc1ccccc1
  A: nt	B: -17	C: nt	D: nt	E: nt	F: nt	G: nt	H: nt

Cc1ccc(CC2C(=O)N(c3ccccc3)C(=O)C2C)cc1 (stereo not drawn)
  A: 0	B: -34	C: 32*	D: 16	E: -3	F: 2	G: -1	H: 3

Cc1ccc(CC2C(=O)N(c3cc(Cl)ccn3)C(=O)C2C)cc1 (stereo not drawn)
  A: 0	B: nt	C: 4	D: -9	E: 17	F: -2	G: nt	H: nt

C[C@H]1CCCCO[C@@H](CN(C)C)[C@@H](C)CN([C@@H](C)CO)C(=O)c2cc(NC(=O)CCC(F)(F)F)ccc2O1
  A: nt	B: 15	C: nt	D: nt	E: nt	F: nt	G: nt	H: nt

C[C@@H]1CN([C@@H](C)CO)C(=O)c2cc(NC(=O)CCC(F)(F)F)ccc2O[C@@H](C)CCCCO[C@@H]1CN(C)C(=O)Nc1ccc(C(F)(F)F)cc1
  A: nt	B: -17	C: nt	D: nt	E: nt	F: nt	G: nt	H: nt

The list goes on.
Codes: A = MC4R barr agon; B = UUG fidelity; C = MC4R antagonist; D = NALP1 inh; E = ALR inh; F = HDAC3 inhib; G = U2OS cAMP counter; H = MC4R antag conf
Cc1cc(C)cc(-n2c(SCC(=O)Nc3cccc(S(=O)(=O)NC4=NCCCCC4)c3)nc3ccccc3c2=O)c1
  A: 2	B: -11	C: 29*	D: 27	E: nt	F: 4	G: 2	H: 4

Cc1ccc(C)c(SCC(=O)Nc2cccc(S(=O)(=O)NC3=NCCCCC3)c2)c1
  A: 2	B: nt	C: -1	D: 30	E: -4	F: 4	G: nt	H: nt

CCc1ccc(-c2nc3ccc(Br)cc3c(C(=O)O)c2C)s1
  A: -1	B: nt	C: 133*	D: 17	E: 50	F: -5	G: 102*	H: 182*

COC(=O)C[C@@H]1CC[C@H]2[C@H](COc3ccc(NS(C)(=O)=O)cc3C(=O)N2C)O1
  A: nt	B: -9	C: nt	D: nt	E: nt	F: nt	G: nt	H: nt

S=C1NC[C@H](Cc2ccccc2)N1CCCCC1CCCCC1
  A: -3	B: -27	C: -1	D: -8	E: 0	F: 5	G: nt	H: nt

S=C1NC[C@H](Cc2ccccc2)N1CC1CCN(CCCC2CCCC2)CC1
  A: 4	B: -16	C: 63*	D: nt	E: nt	F: nt	G: 2	H: 0

CNC(=O)c1cc(Oc2ccc(NC(=O)Nc3ccc(Cl)c(C(F)(F)F)c3)cc2)ccn1
  A: 1	B: -5	C: 47*	D: nt	E: -5	F: 22	G: 4	H: 40*

Cc1cc(C)n(-c2nnc(Cl)c3ccccc23)n1
  A: -5	B: nt	C: 37*	D: 5	E: nt	F: 4	G: 30*	H: 46*

Cc1ccc(-c2nnc(-n3nc(C)cc3C)c3ccccc23)cc1
  A: -1	B: nt	C: 9	D: 29	E: -1	F: 1	G: nt	H: nt

CCOC(=O)c1c(NC(=S)Nc2ccccc2)sc2c1CC(C)(C)SC2
  A: -4	B: nt	C: 35*	D: 7	E: -6	F: 14	G: 2	H: 16

More results
Codes: A = MC4R barr agon; B = UUG fidelity; C = MC4R antagonist; D = NALP1 inh; E = ALR inh; F = HDAC3 inhib; G = U2OS cAMP counter; H = MC4R antag conf
O=C(C1CCOCC1)N1CC[C@H]2[C@H](CO)Nc3ccc(Br)cc3[C@H]21
  A: nt	B: 5	C: nt	D: nt	E: nt	F: nt	G: nt	H: nt

C[C@@H]1CN([C@@H](C)CO)C(=O)c2cc(NC(=O)Nc3cccc4ccccc34)ccc2O[C@@H]1CN(C)S(=O)(=O)c1cn(C)cn1
  A: nt	B: 11	C: nt	D: nt	E: nt	F: nt	G: nt	H: nt

CCOC(=O)c1c(-c2ccc(C)o2)csc1NC(=O)COC(=O)c1cccs1
  A: -1	B: -15	C: 31*	D: -73	E: 2	F: 4	G: 4	H: 15

CCOC(=O)c1c(-c2ccccc2)csc1NC(=O)COc1ccc2c(C)cc(=O)oc2c1
  A: 0	B: nt	C: 30*	D: 11	E: -6	F: -3	G: 1	H: 1

CCOC(=O)c1c(-c2ccccc2)csc1NC(=O)CSc1ccccc1
  A: 0	B: nt	C: 20	D: 20	E: -4	F: 3	G: nt	H: nt

S=c1nc(-c2ccccc2)[nH]c2ccccc12
  A: -3	B: 21	C: 5	D: -4	E: -1	F: -11	G: nt	H: nt

S=c1nc[nH]c2c1[nH]c1ccc(Cl)cc12
  A: 2	B: nt	C: 35*	D: nt	E: -5	F: -2	G: 3	H: -4

S=c1nc[nH]c2c1[nH]c1ccccc12
  A: -3	B: -17	C: 49*	D: 17	E: 98*	F: -8	G: 4	H: 17

O=C(Cc1ccc(F)cc1)NCCc1ccc(F)cc1
  A: 0	B: nt	C: 5	D: 7	E: -3	F: ?	G: nt	H: nt

O=C(Cc1ccc(F)cc1)NCCc1cnc[nH]1
  A: 0	B: -7	C: 31*	D: 20	E: 1	F: -3	G: -1	H: -15

CC(Sc1nnc(NC2CC2)s1)C(=O)Nc1ccc(N2CCOCC2)cc1 (stereo not drawn)
  A: -3	B: nt	C: 14	D: nt	E: nt	F: nt	G: nt	H: nt

CC(Sc1nnc(NC2CCCCC2)s1)C(=O)Nc1ccc2c(c1)C(=O)c1ccccc1C2=O (stereo not drawn)
  A: 3	B: -31	C: 30*	D: 33	E: -5	F: 2	G: 0	H: 3

O=C(C[C@@H]1CC[C@H](NC(=O)c2ccc3c(c2)OCO3)[C@H](CO)O1)NCc1ccc(Cl)cc1
  A: nt	B: 16	C: nt	D: nt	E: nt	F: nt	G: nt	H: nt

Copied from the list.
`S=c1nc[nH]c2c1[nH]c1ccccc12` in ALR inh reads 98*
`CCOC(=O)c1c(-c2ccccc2)csc1NC(=O)CSc1ccccc1` in ALR inh reads -4
`S=c1nc[nH]c2c1[nH]c1ccc(Cl)cc12` in ALR inh reads -5
